This note sets out measurements from US8541380B2, “C-aryl glucoside SGLT2 inhibitors and pharmaceutical compositions comprising same” (Green Cross Corporation, priority 2009, dated 2013).

Protein sequences, listed by entry. Tags and fused reporters are not part of them. Lines headed by an entry give the natural chain unless they say otherwise; changes in a name come on top.
UniProt P31639: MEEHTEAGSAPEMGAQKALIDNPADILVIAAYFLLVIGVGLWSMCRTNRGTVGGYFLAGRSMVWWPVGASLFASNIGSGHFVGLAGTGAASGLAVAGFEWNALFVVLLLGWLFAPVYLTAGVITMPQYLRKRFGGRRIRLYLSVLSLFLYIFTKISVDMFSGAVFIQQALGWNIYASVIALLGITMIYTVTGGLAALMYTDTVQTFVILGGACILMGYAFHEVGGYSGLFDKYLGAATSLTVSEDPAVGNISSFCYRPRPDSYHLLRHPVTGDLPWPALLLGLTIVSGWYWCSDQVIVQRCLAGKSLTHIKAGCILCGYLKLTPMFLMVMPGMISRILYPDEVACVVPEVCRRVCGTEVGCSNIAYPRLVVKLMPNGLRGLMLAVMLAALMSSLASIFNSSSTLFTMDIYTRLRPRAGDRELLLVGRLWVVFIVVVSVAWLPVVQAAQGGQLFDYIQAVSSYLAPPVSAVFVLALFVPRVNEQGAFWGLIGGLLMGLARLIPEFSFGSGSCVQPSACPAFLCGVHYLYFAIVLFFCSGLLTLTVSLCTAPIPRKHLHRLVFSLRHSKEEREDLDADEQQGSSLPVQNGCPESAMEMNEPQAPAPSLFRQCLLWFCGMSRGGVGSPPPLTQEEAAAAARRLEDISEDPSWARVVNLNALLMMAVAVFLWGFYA

The assay addresses human SGLT2 (Homo sapiens (Human), UniProt P31639). The assay is described as follows: hSGLT2 inhibitory activity, sodium-dependent 14C-AMG glucose transport assay in CHO cells expressing hSGLT2. Format: cell-based. As to conditions: 14C-AMG uptake, CHO cells expressing hSGLT2, 37° C. for 2 h. The source says: Human SGLT2 (hSGLT2) gene was amplified by PCR from cDNA-Human Adult Normal Tissue Kidney (Invitrogen, Carlsbad, Calif.). The hSGLT2 sequence was cloned into pcDNA3.1(+) for mammalian expression and were stably transfected into Chinese hamster ovary (CHO) cells. SGLT2-expressing clones were selected based on resistance to G418 antibiotic (Geneticin®, Invitrogen, Carlsbad, Calif.) and activity in the ^14C-α-methyl-D-glucopyranoside (^14C-AMG) uptake assay.
For sodium-dependent glucose transport assay, cells expressing hSGLT2 were seeded into a 96-well culture plate at a density of 5×10^4 cells/well in RPMI medium 1640 containing 10% fetal bovine serum. The cells were used 1 day after plating. They were incubated in pretreatment buffer (10 mM HEPES, 5 mM Tris, 140 mM choline chloride, 2 mM KCl, 1 mM CaCl2, and 1 mM MgCl2, pH 7.4) at 37° C. for 10 min. They were then incubated in uptake buffer (10 mM HEPES, 5 mM Tris, 140 mM NaCl, 2 mM KCl, 1 mM CaCl2, 1 mM MgCl2, and 1 mM ^14C-nonlabeled AMG pH 7.4) containing ^14C-labeled (8 uM) and inhibitor or dimethyl sulfoxide (DMSO) vehicle at 37° C. for 2 h. Cells were washed twice with washing buffer (pretreatment buffer containing 10 mM AMG at room temperature) and then the radioactivity was measured using a liquid scintillation counter.

In turn, `OC[C@H]1OC(c2cccc(Cc3nnc(-c4ccccc4)s3)c2)[C@H](O)[C@@H](O)[C@@H]1O` (stereo partly drawn) [Example 35, (2R,3S,4R,5R)-2-(Hydroxymethyl)-6-(3-((5-phenyl-1,3,4-thiadiazol-2-yl)methyl)phenyl)-tetrahydro-2H-pyran-3,4,5-triol] had an IC50 of 1.42 µM.
The molecule `OC[C@H]1OC(c2cccc(Cc3nnc(-c4cccnc4)s3)c2)[C@H](O)[C@@H](O)[C@@H]1O` (stereo partly drawn) [Example 36, (2R,3S,4R,5R)-2-(Hydroxymethyl)-6-(3-((5-(pyridin-3-yl)-1,3,4-thiadiazol-2-yl)methyl)phenyl)-tetrahydro-2H-pyran-3,4,5-triol] showed an IC50 of 1.23 µM.

A word on the IC50: it is the point on the concentration scale where inhibition reaches its midpoint. A higher IC50 goes with weaker potency in that assay.
